According to patent US12564559B2, “Combinations of LSD1 inhibitors for use in the treatment of solid tumors” (Oryzon Genomics, S.A., priority 2016, dated 2026):

Experiments:
[1] = tested on: SCLC and NSCLC cell lines; experiment: Synergy Score (Loewe additivity, ATPLite growth inhibition) of combinations with the LSD1 inhibitor, Example 2 / Table 4; conditions: 2nd API combined with (trans)-N1-((1R,2S)-2-phenylcyclopropyl)cyclohexane-1,4-diamine; for Synergy Scores in NSCLC A549: NSCLC cell line A549; for Synergy Scores in NSCLC CAL-12T: NSCLC cell line CAL-12T; for Synergy Scores in NSCLC NCI-H441: NSCLC cell line NCI-H441; for Synergy Scores in SCLC NCI-H187: SCLC cell line NCI-H187; for Synergy Scores in SCLC NCI-H446: SCLC cell line NCI-H446; for Synergy Scores in SCLC NCI-H510: SCLC cell line NCI-H510; for Synergy Scores in SCLC NCI-H1048: SCLC cell line NCI-H1048; for Synergy Scores in SCLC NCI-H1417: SCLC cell line NCI-H1417; for Synergy Scores in SCLC NCI-H1876: SCLC cell line NCI-H1876; for Synergy Scores in SCLC SBC-5: SCLC cell line SBC-5
[2] = tested on: SCLC cell lines; experiment: In vitro Synergy Score of combinations with the LSD1 inhibitor in expanded panel of SCLC cell lines, Example 3 / Table 5; assay type: cell-based, human; conditions: for Synergy Scores of SCLC cell lines DMS-114: SCLC cell line DMS-114; for Synergy Scores of SCLC cell lines DMS-114 / Synergy Scores of SCLC cell lines NCI-H69 / Synergy Scores of SCLC cell lines NCI-H187 / Synergy Scores of SCLC cell lines NCI-H446 / Synergy Scores of SCLC cell lines NCI-H510 / Synergy Scores of SCLC cell lines NCI-H526 / Synergy Scores of SCLC cell lines NCI-H1417 / Synergy Scores of SCLC cell lines NCI-H1876 / Synergy Scores of SCLC cell lines NCI-H2171 / Synergy Scores of SCLC cell lines SHP-77: 2nd API combined with (trans)-N1-((1R,2S)-2-phenylcyclopropyl)cyclohexane-1,4-diamine, scores >6.4 considered significant; for Synergy Scores of SCLC cell lines NCI-H69: SCLC cell line NCI-H69; for Synergy Scores of SCLC cell lines NCI-H187: SCLC cell line NCI-H187; for Synergy Scores of SCLC cell lines NCI-H446: SCLC cell line NCI-H446; for Synergy Scores of SCLC cell lines NCI-H510: SCLC cell line NCI-H510; for Synergy Scores of SCLC cell lines NCI-H526: SCLC cell line NCI-H526; for Synergy Scores of SCLC cell lines NCI-H1417: SCLC cell line NCI-H1417; for Synergy Scores of SCLC cell lines NCI-H1876: SCLC cell line NCI-H1876; for Synergy Scores of SCLC cell lines NCI-H2171: SCLC cell line NCI-H2171; for Synergy Scores of SCLC cell lines SHP-77: SCLC cell line SHP-77

| SMILES | Synergy Scores in NSCLC A549 [1] | Synergy Scores in NSCLC CAL-12T [1] | Synergy Scores in NSCLC NCI-H441 [1] | Synergy Scores in SCLC NCI-H187 [1] | Synergy Scores in SCLC NCI-H446 [1] | Synergy Scores in SCLC NCI-H510 [1] | Synergy Scores in SCLC NCI-H1048 [1] | Synergy Scores in SCLC NCI-H1417 [1] | Synergy Scores in SCLC NCI-H1876 [1] | Synergy Scores in SCLC SBC-5 [1] | Synergy Scores of SCLC cell lines DMS-114 [2] | Synergy Scores of SCLC cell lines NCI-H69 [2] | Synergy Scores of SCLC cell lines NCI-H187 [2] | Synergy Scores of SCLC cell lines NCI-H446 [2] | Synergy Scores of SCLC cell lines NCI-H510 [2] | Synergy Scores of SCLC cell lines NCI-H526 [2] | Synergy Scores of SCLC cell lines NCI-H1417 [2] | Synergy Scores of SCLC cell lines NCI-H1876 [2] | Synergy Scores of SCLC cell lines NCI-H2171 [2] | Synergy Scores of SCLC cell lines SHP-77 [2] | other results |
| --- | --- | --- | --- | --- | --- | --- | --- | --- | --- | --- | --- | --- | --- | --- | --- | --- | --- | --- | --- | --- | --- |
| CC1=CC(=O)c2ccccc2C1=O [Menadione, 2-Methylnaphthalene-1,4-dione] | 0.06 | 0.01 | 0.02 | 3.89 | 0.06 | 3.63 | 0.45 | 4.18 | 8.81 | 0.52 | – | – | – | – | – | – | – | – | – | – | – |
| CCc1c2c(nc3ccc(OC(=O)N4CCC(N5CCCCC5)CC4)cc13)-c1cc3c(c(=O)n1C2)COC(=O)[C@]3(O)CC [Irinotecan, (S)-4,11-diethyl-3,4,12,14-tetrahydro-4-hydroxy-3,14-dioxo1H-pyrano[3′,4′:6,7]-indolizino[1,2-b]quinolin-9-yl-[1,4′bipiperidine]-1′-carboxylate] | 0.02 | 0.14 | 3.45 | 13.74 | – | 17.17 | 2.00 | 21.62 | 8.75 | 0.48 | – | – | – | – | – | – | – | – | – | – | – |
| O=C(/C=C/c1cccc(S(=O)(=O)Nc2ccccc2)c1)NO [Belinostat, (22E)-N-Hydroxy-3-[3-(phenylsulfamoyl)phenyl]prop-2-enamide] | 0.52 | 0.42 | 0.66 | 14.35 | 3.21 | 15.72 | 1.61 | 19.12 | 9.05 | 1.84 | – | – | – | – | – | – | – | – | – | – | – |
| OCCn1cc(-c2cnc3nnn(Cc4ccc5ncccc5c4)c3n2)cn1 [PF-04217903, 4-[1-(6-quinolinylmethyl)-1H-l,2,3-triazolo[4,5-b]pyrazin-6-yl]-1H-pPyrazole-1-ethanol] | 0.07 | 0.15 | 0.16 | 0.99 | 0.01 | 1.11 | 0.56 | 0.81 | 6.68 | 0.49 | – | – | – | – | – | – | – | – | – | – | – |
| Br.Br.CCC[C@H](N[C@H]1CCc2cc(F)cc(F)c2C1)C(=O)Nc1cn(C(C)(C)CNCC(C)(C)C)cn1 [PF-3084014, (2S)-2-[[(2S)-6,8-Difluoro-1,2,3,4-tetrahydro-2-naphthalenyl]amino]-N-[1-[2-[(2,2-dimethylpropyl)amino]-1,1-dimethylethyl]-1H-imidazol-4-yl]pentanamide dihydrobromide] | – | – | – | – | – | – | – | – | – | – | 0.02 | 1.53 | 0.10 | 1.31 | 0.03 | 8.64 | 0.02 | 0.25 | 1.02 | 0.19 | – |
| CS(=O)(=O)c1ccc(C(=O)Nc2ccc(Cl)c(-c3ccccn3)c2)c(Cl)c1 [GDC-0449, 2-Chloro-N-(4-chloro-3-pyridin-2-ylphenyl)-4-methylsulfonylbenzamide] | – | – | – | – | – | – | – | – | – | – | 0.01 | 0.90 | 0.16 | 0.16 | 3.05 | 1.76 | 0.25 | 5.64 | 0.10 | 0.24 | – |
| CCS(=O)(=O)N1CCC(C(C)n2c(C)c(C(=O)NCc3c(OC)cc(C)[nH]c3=O)c3ccccc32)CC1 (stereo not drawn) [CPI-169, N-[(1,2-dihydro-4-methoxy-6-methyl-2-oxo-3-pyridinyl)methyl]-1-[1-[1-(ethylsulfonyl)-4-piperidinyl]ethyl]-2-methyl-1H-indole-3-carboxamide] | – | – | – | – | – | – | – | – | – | – | 0.06 | 0.03 | 0.09 | 0.31 | 5.76 | 2.46 | 0.38 | 8.50 | 0.00 | 0.03 | synergy with LSD1 inhibition ([2]; combination with (trans)-N1-((1R,2S)-2-phenylcyclopropyl)cyclohexane-1,4-diamine, expanded panel of SCLC cell lines): Synergy was also observed |
| CCCc1cc(C)[nH]c(=O)c1CNC(=O)c1cc(-c2ccnc(N3CCN(C)CC3)c2)cc2c1cnn2C(C)C [GSK343, N-[(1,2-dihydro-6-methyl-2-oxo-4-propyl-3-pyridinyl)methyl]-1-(1-methylethyl)-6-[2-(4-methyl-1-piperazinyl)-4-pyridinyl]-1H-indazole-4-carboxamide] | – | – | – | – | – | – | – | – | – | – | 0.05 | 0.81 | 0.15 | 0.01 | 4.25 | 2.48 | 0.24 | 0.81 | 0.36 | 0.13 | – |
| Cc1c(C(=O)Nc2ccc(N3C[C@@H](C)O[C@@H](C)C3)nc2)cccc1-c1ccc(OC(F)(F)F)cc1 [LDE225, N-[6-[(2S,6R)-2,6-Dimethylmorpholin-4-yl]pyridin-3-yl]-2-methyl-3-[4-(trifluoromethoxy)phenyl]benzamide] | – | – | – | – | – | – | – | – | – | – | 0.08 | 0.78 | 0.73 | 0.02 | 5.81 | 2.17 | 1.01 | 0.57 | 0.34 | 0.53 | – |
